The values that follow come from PubChem BioAssay AID1510 (The Scripps Research Institute Molecular Screening Center, 2009).

Sequences of proteins named here, by UniProt entry; tags and fusion partners are left off.
UniProt O95977, whole entry: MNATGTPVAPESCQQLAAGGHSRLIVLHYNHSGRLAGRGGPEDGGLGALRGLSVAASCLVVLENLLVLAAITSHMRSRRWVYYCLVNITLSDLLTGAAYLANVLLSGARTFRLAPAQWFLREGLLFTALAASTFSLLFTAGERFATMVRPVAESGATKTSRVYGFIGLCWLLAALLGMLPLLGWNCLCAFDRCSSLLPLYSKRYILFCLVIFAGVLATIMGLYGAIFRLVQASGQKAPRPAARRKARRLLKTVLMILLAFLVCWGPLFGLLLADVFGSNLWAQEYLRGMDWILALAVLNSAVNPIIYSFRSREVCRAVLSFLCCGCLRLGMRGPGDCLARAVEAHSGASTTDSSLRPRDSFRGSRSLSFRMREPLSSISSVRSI

This is a selection; strong and weak results do not stand in their true shares. Calls of active or inactive are those of the source. Cut-off read from the data, not from the text of the source: active = inhibition above about 29%; inactive = the rest.

The target of this assay is Sphingosine 1-phosphate receptor 4 (Homo sapiens) (UniProt O95977). Put plainly: S1P4 receptor antagonists, primary screen, cell-based (AID 1510).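 Note: 0% = wells stimulated with agonist and 100% = vehicle wells without agonist.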 The note with it: S1P4-expressing cells, antagonist mode, reporter read-out; at 4.98 µM; hits give high values.
As to `O=C(OCCN1CCN(CCOCc2ccccc2)CC1)C(O)(c1ccccc1)c1ccccc1`, the inhibition is inactive: -23.1%.

For the molecule `O=C(OC1CN2CCC1CC2)c1ccc([N+](=O)[O-])cc1` (stereo not drawn), the inhibition was inactive: -1.75%.

With `CC(C)c1ccc(OP(C)(=O)Nc2ccc(SC(F)(F)F)cc2)cc1` (stereo not drawn), the inhibition is inactive: -11.1%.

As for `CP(=O)(Nc1ccccc1F)Oc1ccccc1` (stereo not drawn), the inhibition was inactive: 6.14%.

Consider `CCCCCOc1ccc(NP(C)(=O)Oc2ccc(Cl)cc2Cl)cc1` (stereo not drawn), for which the inhibition was inactive: -8.39%.

With `CP(=O)(Nc1ccccc1)Oc1ccc(F)cc1` (stereo not drawn), the inhibition was inactive: 9.29%.

Consider `CCN(CC)CCCOC(=O)C(O)(c1ccccc1)C1CCCCC1` (stereo not drawn), for which the inhibition is inactive: 1.72%.

Consider `COc1ccc(OP(C)(=O)Nc2ccc(SC(F)(F)F)cc2)cc1` (stereo not drawn), for which the inhibition is inactive: 1.61%.

Consider `CCOC(=O)c1ccc(NP(C)(=O)Oc2ccc(F)cc2)cc1` (stereo not drawn), for which the inhibition is inactive: -2.85%.

Consider `O=[N+]([O-])c1cc([N+](=O)[O-])c(NCC2CCS(=O)(=O)C2)c([N+](=O)[O-])c1` (stereo not drawn), for which the inhibition is inactive: -14.8%.

In the case of `Cc1cc(-c2cccc3ccccc23)c(C)cn1.O=[N+]([O-])c1cc([N+](=O)[O-])c(O)c([N+](=O)[O-])c1`, the inhibition was inactive: 6.3%.

As for `O=[N+]([O-])c1ccc(OP2(=O)COCCO2)cc1` (stereo not drawn), the inhibition is inactive: -4.73%.

In the case of `COc1ccc(NP(C)(=O)Oc2ccccc2OC)cc1` (stereo not drawn), the inhibition is inactive: -2.05%.

Regarding `CN(C)CCOC(=O)C(O)(c1ccccc1)C1CCCCC1` (stereo not drawn), the inhibition is inactive: 1.48%.

On to `COc1ccc(OP(C)(=O)Nc2cccc(Br)c2)cc1` (stereo not drawn), for which the inhibition is inactive: -8.05%.

For the molecule `Cc1ccccc1NP(C)(=O)Nc1ccccc1C`, the inhibition is inactive: -4.09%.

Turning to `CP(=O)(Nc1ccc2c(c1)OCCO2)Oc1ccccc1` (stereo not drawn), the inhibition was inactive: -2.72%.

In the case of `CCOP(C)(=S)SCC(=O)NC(C)(CC)C(=O)O` (stereo not drawn), the inhibition was inactive: -3.91%.

Take `CP(=O)(Nc1ccc(SC(F)(F)F)cc1)Oc1ccc(F)cc1` (stereo not drawn): the inhibition was inactive: -7.33%.

Regarding `CN(C)C(=O)c1c([N+](=O)[O-])cc([N+](=O)[O-])cc1[N+](=O)[O-]`, the inhibition is inactive: 13.5%.

With `CP(=O)(Nc1ccc(Cl)cc1)Oc1ccc(F)cc1` (stereo not drawn), the inhibition is inactive: 3.12%.

As to `CC(C)(C)c1ccc(OP(C)(=O)O)cc1`, the inhibition is inactive: 18.4%.

For `COc1ccccc1OP(C)(=O)Nc1ccccc1Br` (stereo not drawn), the inhibition was inactive: 10.7%.

With `CP(=O)(Oc1ccccc1)N1CCOC1=O` (stereo not drawn), the inhibition is inactive: -8.8%.

Regarding `CCc1ccc(OP(C)(=O)Nc2cccnc2)cc1` (stereo not drawn), the inhibition was inactive: -1.78%.

For the molecule `COc1ccccc1OP(C)(=O)Nc1c(C)n(C)n(-c2ccccc2)c1=O` (stereo not drawn), the inhibition was inactive: -5.96%.

As to `O=C(OCCCN1CCCC1)C(O)(c1ccccc1)C1CCCCC1` (stereo not drawn), the inhibition is inactive: 5.71%.

For `CCN(CC)CC(O)COC(=O)C(O)(c1ccccc1)C1CCCCC1` (stereo not drawn), the inhibition is inactive: -18.1%.

Turning to `COc1ccc(OP(C)(=O)Nc2ccc(Br)cc2)cc1` (stereo not drawn), the inhibition was inactive: -12.5%.

For `CP(=O)(OC12CC3CC(CC(C3)C1)C2)OC12CC3CC(CC(C3)C1)C2`, the inhibition was inactive: 9.34%.

For `CCOC(=O)c1ccc(NP(C)(=O)Oc2ccc(Cl)cc2)cc1` (stereo not drawn), the inhibition is inactive: 11.2%.

With `CP(=O)(OCCOc1ccccc1)OCCOc1ccccc1`, the inhibition was inactive: -10.9%.

In the case of `CP(=O)(Nc1ccc(Cl)cc1Cl)Oc1ccccc1` (stereo not drawn), the inhibition was inactive: -1.95%.

Turning to `Cc1nc2ccc3ccccc3c2o1.O=[N+]([O-])c1cc([N+](=O)[O-])c(O)c([N+](=O)[O-])c1`, the inhibition is inactive: 1.03%.

Take `COc1ccc(OP(C)(=O)Nc2ccccc2Br)cc1` (stereo not drawn): the inhibition was inactive: -2.29%.

`COc1ccccc1OP(C)(=O)Nc1ccc(C)c(C)c1` (stereo not drawn): the inhibition is inactive: -5.14%.

Consider `Cc1cc(C)cc(OP(C)(=O)Nc2cccc(C(F)(F)F)c2)c1` (stereo not drawn), for which the inhibition is inactive: 10.8%.

With `CCc1ccc(OP(C)(=O)O)cc1`, the inhibition was inactive: -9.68%.

On to `CP(=O)(Nc1ccccn1)Oc1ccccc1` (stereo not drawn), for which the inhibition is inactive: -1.04%.

On to `COc1ccccc1OP(C)(=O)Nc1ccc(C)cc1C` (stereo not drawn), for which the inhibition is inactive: -7.03%.

As to `O=[N+]([O-])c1cc([N+](=O)[O-])c(Nc2ccccn2)c([N+](=O)[O-])c1`, the inhibition was inactive: -8.8%.

Take `Cc1c(NP(C)(=O)Oc2ccc(C(C)C)cc2)c(=O)n(-c2ccccc2)n1C` (stereo not drawn): the inhibition is inactive: -3.31%.

As to `CN(C)CCOC(=O)C(O)(c1ccccc1)C1CCCC1` (stereo not drawn), the inhibition is inactive: -2.13%.

On to `COc1ccc(OP(C)(=O)Nc2ccccn2)cc1` (stereo not drawn), for which the inhibition is inactive: -11%.

In the case of `COc1ccccc1OP(C)(=O)Nc1ccc(Br)cc1` (stereo not drawn), the inhibition is inactive: -19%.

As to `CCN(CC)CCCOC(=O)C(O)(c1ccccc1)c1ccccc1`, the inhibition is inactive: 7.69%.

As for `COc1ccccc1OP(C)(=O)Nc1cc(Cl)ccc1C` (stereo not drawn), the inhibition is inactive: 1.07%.

As for `COc1ccc(OP(C)(=O)Nc2cccc(F)c2)cc1` (stereo not drawn), the inhibition was inactive: 10.9%.

Consider `Cc1cc(C)cc(OP(C)(N)=O)c1` (stereo not drawn), for which the inhibition is inactive: -17.5%.

As for `CCOC(=O)c1ccc(NP(C)(=O)Oc2ccccc2)cc1` (stereo not drawn), the inhibition was inactive: -2.78%.

`COc1ccccc1OP(C)(=O)Nc1ccc(C)cc1` (stereo not drawn): the inhibition is inactive: -22.4%.

With `Cc1ccc(NP(C)(=O)Oc2ccccc2)c(C)c1` (stereo not drawn), the inhibition was inactive: -14%.

For the molecule `CC(C)(C)c1ccc(OP(C)(=O)Nc2ccc(SC(F)(F)F)cc2)cc1` (stereo not drawn), the inhibition was inactive: -2.6%.

For `Cc1cccc(C)c1OP(C)(N)=O` (stereo not drawn), the inhibition was inactive: -3.42%.

Consider `O=[N+]([O-])c1ccc2c(c1)C=Nc1ccccc1O2`, for which the inhibition was inactive: -18.9%.

`COc1ccccc1OP(C)(=O)Nc1ccccc1` (stereo not drawn): the inhibition was inactive: -6.88%.

Consider `CP(=O)(Nc1ccccc1Br)Oc1ccccc1` (stereo not drawn), for which the inhibition is inactive: 4.43%.

Take `CP(=S)(Nn1cnnc1)Oc1ccccc1` (stereo not drawn): the inhibition was inactive: -14.3%.

Turning to `CP(=O)(Nc1ccccn1)Oc1ccc(Cl)cc1` (stereo not drawn), the inhibition is inactive: 1.02%.

`CCOP(C)(=S)SCC(=O)NC(C)C(=O)O` (stereo not drawn): the inhibition was inactive: -12.3%.

For the molecule `CCOC(=O)c1ccc(NP(C)(=O)Oc2ccc(OC)cc2)cc1` (stereo not drawn), the inhibition was inactive: -8.3%.

`CCc1ccc(OP(C)(=O)N2CCN(c3ccc([N+](=O)[O-])cc3)CC2)cc1` (stereo not drawn): the inhibition was inactive: 11.2%.

For `CP(=O)(NC(=O)Nc1ccccc1)Oc1ccccc1` (stereo not drawn), the inhibition is inactive: 5.8%.

Turning to `Cc1cc(C)cc(OP(C)(=O)Nc2ccc(SC(F)(F)F)cc2)c1` (stereo not drawn), the inhibition was inactive: -22.6%.

As to `CP(=O)(Nc1ccc(SC(F)(F)F)cc1)Oc1ccc(Cl)cc1` (stereo not drawn), the inhibition was inactive: -6.58%.

As to `Cc1cccc(C)c1OP(C)(=O)Nc1ccc(SC(F)(F)F)cc1` (stereo not drawn), the inhibition is inactive: -7.21%.

Turning to `CP(=O)(Oc1ccccc1)OC(c1ccccc1)C(F)(F)F` (stereo not drawn), the inhibition was inactive: -7.73%.

Consider `Cc1nc2ccc3ccccc3c2s1.O=[N+]([O-])c1cc([N+](=O)[O-])c(O)c([N+](=O)[O-])c1`, for which the inhibition was inactive: -6.13%.

With `O=[N+]([O-])c1cc([N+](=O)[O-])c(-n2nnc3ccccc32)c([N+](=O)[O-])c1`, the inhibition is inactive: -4.85%.

`CP(=O)(Nc1ccc(SC(F)(F)F)cc1)Oc1ccccc1` (stereo not drawn): the inhibition was inactive: -3.54%.

Regarding `CCCOc1ccc(NP(C)(=O)Oc2ccc(Cl)cc2)cc1` (stereo not drawn), the inhibition was inactive: -3.6%.

As to `CN1CCCCC1COC(=O)C1(O)c2ccccc2CCc2ccccc21` (stereo not drawn), the inhibition was inactive: -5.67%.

Take `COc1ccccc1OP(C)(=O)Nc1c(C)cccc1C` (stereo not drawn): the inhibition is inactive: -11.4%.

Regarding `O=[N+]([O-])c1cc([N+](=O)[O-])c(Nc2nnnn2CCO)c([N+](=O)[O-])c1`, the inhibition is inactive: -3.19%.

For `CCOC(=O)C(CC)C1=NC(C)(C)Cc2ccccc21.O=[N+]([O-])c1cc([N+](=O)[O-])c(O)c([N+](=O)[O-])c1` (stereo not drawn), the inhibition was inactive: 0.11%.

Take `CC1=NCCc2c1[nH]c1ccccc21.O=[N+]([O-])c1cc([N+](=O)[O-])c(O)c([N+](=O)[O-])c1`: the inhibition was inactive: -4.49%.

On to `O=C(O)c1cccc(Nc2c([N+](=O)[O-])cc([N+](=O)[O-])cc2[N+](=O)[O-])c1`, for which the inhibition is inactive: -14.5%.

On to `CP(=O)(Nc1cccc(Br)c1)Oc1ccccc1` (stereo not drawn), for which the inhibition is inactive: -4.44%.

On to `Cc1cc(C)cc(OP(C)(=O)Nc2ccccn2)c1` (stereo not drawn), for which the inhibition is inactive: -3.29%.

As to `Cc1ccc(C)c(NP(C)(=O)Oc2ccccc2)c1` (stereo not drawn), the inhibition is inactive: -5.49%.

On to `Cc1cc(C)cc(OP(C)(=O)Nc2ccc(C)cc2C)c1` (stereo not drawn), for which the inhibition is inactive: -1.53%.

As for `CCOC(=O)c1ccc(NP(C)(=O)Oc2cc(C)cc(C)c2)cc1` (stereo not drawn), the inhibition was inactive: -11.1%.

For `COc1ccccc1OP(C)(=O)Nc1cccc(Br)c1` (stereo not drawn), the inhibition is inactive: -5.42%.
